# From patent publication US20080182798A1 (published 2008)
# Assay: Testing the solubility of salts of Ile-Thia in distilled water
# Format: physicochemical
# Conditions: H2Odist., visual
row,Substance,Solubility: concentration at complete dissolution
1,isoleucyl thiazolidide tartrate,17.3%
2,isoleucyl thiazolidide hydrochloride,16.1%
3,isoleucyl thiazolidide phosphate,3.87%
